## OPERA 2.9 data: melting point values

Data: OPERA 2.9 data sets, kmansouri/OPERA on GitHub.

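The numbers are reported measurements, compiled and curated for the OPERA QSAR suite. A listed value is a point estimate from one report or more. Method, purity and exact conditions of the single measurements are not given. A value may pool stereoisomers or salt forms, and the file does not say which form was measured. Unmarked limits or estimates from the upstream databases cannot be ruled out.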

Melting points are in °C.
Cells with "–" have no entry in this list.
The databases behind each value are named after "via".

SMILES	name	mp (°C)	via
CCOc1ccc(S(=O)(=O)N2CCN(C)CC2)cc1C(=O)O	2-Ethoxy-5-(4-methylpiperazine-1-sulfonyl)benzoic acid	192.5	eChemPortal
COc1ccc(C(=O)Nc2ccc(C(N)=O)cc2)cc1[N+](=O)[O-]	N-(4-(Aminocarbonyl)phenyl)-4-methoxy-3-nitrobenzamide	240	eChemPortal
CCC(C)n1nccc1N (centres undefined)	1-sec-butyl-1H-pyrazol-5-amine	31	OCHEM
Cc1c(N=Nc2cccc(OS(=O)(=O)c3ccccc3)c2)c(O)n(C)c(=O)c1C#N	–	200	eChemPortal
Cc1ccc(C2=CCC(C3CCC4(CC3)OCCO4)CC2)cc1 (centres undefined)	–	124.5	eChemPortal
O=S(=O)(Cl)c1ccc(C2CCCCC2)cc1	4-cyclohexylbenzenesulfonyl chloride	50	OCHEM
CCCCOCCOCCOCOCCOCCOCCCC	Bis(butoxyethoxyethoxy)methane	-34.65	OFMPub, eChemPortal
CCC1CCC(c2ccc(-c3cc(F)c(C(F)(F)Oc4cc(F)c(F)c(F)c4)c(F)c3)cc2)OC1 (centres undefined)	–	79.6	eChemPortal
CO/N=C1\CN(c2nc3c(cc2F)c(=O)c(C(=O)O)cn3C2CC2)CC1CN (stereo partly drawn)	Gemifloxacin	236	PubChem
CCCCCCCCCCCC(=O)N(C)C	N,N-Dimethyldodecanamide	19	eChemPortal
O=[N+]([O-])c1c(Cl)ccc2ncccc12	6-chloro-5-nitroquinoline	120	OCHEM
CCOC(=O)c1ccc(-n2c(C)cc(C=O)c2C)cc1	Ethyl 4-(3-formyl-2,5-dimethyl-1H-pyrrol-1-yl)benzoate	114	OCHEM
Nc1ccc(OCc2cccs2)cc1	4-[(Thiophen-2-yl)methoxy]aniline	62	OCHEM
CCCC1CC=C(C)C(=O)C1 (centres undefined)	2-Methyl-5-propylcyclohex-2-en-1-one	-45.4	eChemPortal
CC(C)(C)c1ccc(-c2csc(N)n2)cc1	4-(4-tert-butylphenyl)-1,3-thiazol-2-amine	128	OCHEM
Cc1cc(=O)oc2cc(OCC(=O)NN)ccc12	–	180	OCHEM
CCOc1ccc(Nc2n[nH]c(=S)s2)cc1	5-(4-Ethoxyanilino)-1,3,4-thiadiazole-2(3H)-thione	171	OCHEM
CC(=O)OCNC(=O)c1ccccc1C(F)(F)F	(((2-(Trifluoromethyl)phenyl)carbonyl)amino)methyl acetate	56.2	eChemPortal
O=C(Nc1ccccn1)c1cc2ccccc2cc1O	3-hydroxy-n-pyridin-2-yl-2-naphthamide	237	OCHEM
FC(F)(F)C(F)(F)C(F)(F)C(F)(F)C(F)(F)C(F)(F)c1ccc(-c2cccs2)s1	5-(Tridecafluorohexyl)-2,2'-bithiophene	52.5	ChemicalBook
CC(C)COCC(CN(Cc1ccccc1)c1ccccc1)N1CCCC1.Cl.O (centres undefined)	Bepridil hydrochloride monohydrate	91	OCHEM
COc1cc2c(C#N)c(OC)nc(N)c2c(N)n1	1,8-diamino-3,6-dimethoxy-2,7-naphthyridine-4-carbonitrile	250	OCHEM

The 3 highest values of mp among the entries above:

SMILES	name	mp (°C)	via
COc1cc2c(C#N)c(OC)nc(N)c2c(N)n1	1,8-diamino-3,6-dimethoxy-2,7-naphthyridine-4-carbonitrile	250	OCHEM
COc1ccc(C(=O)Nc2ccc(C(N)=O)cc2)cc1[N+](=O)[O-]	N-(4-(Aminocarbonyl)phenyl)-4-methoxy-3-nitrobenzamide	240	eChemPortal
O=C(Nc1ccccn1)c1cc2ccccc2cc1O	3-hydroxy-n-pyridin-2-yl-2-naphthamide	237	OCHEM